Patent publication EP4659739A9, “TOPICAL FORMULATION COMPRISING NON-COVALENT KERATIN-ACTIVE AGENT CONJUGATES FOR THERAPEUTIC USE” (Rigi Therapeutics AG, priority 2024, dated 2025)

Tested on: Chorion-Allantois-Membran
Test: HET-CAM, preclinical tolerability
Design: species or system Gallus gallus domesticus
Settings: classified by IS
Procedure: Als Screening hinsichtlich der Hautverträglichkeit der Keratinpartikel wurde dieses in eine halbfeste Formulierung eingearbeitet und an der Chorion-Allantois-Membran von acht- bis neuntägigen Gallus gallus domesticus Embryonen (Rasse: New Hampshire) getestet.
Die Hautverträglichkeit der Keratinpartikel wurde an der Chorion-Allantois-Membran von acht- bis neuntägigen Hühnerembryonen getestet. Befruchtete Hühnereier wurden hierfür acht bis neun Tage lang bei 37°C und 55 % Luftfeuchtigkeit bebrütet. Alle 12 Stunden wurden die Eier gewendet, ausgenommen die letzten 24 Stunden vor Versuchsbeginn. Die Öffnung der Eier wurde an den nach oben gerichteten Eierpolen durchgeführt, wofür die Eierschalen kreisrund (Ø 1,5 cm) geöffnet wurden. Nach dem Abnehmen der Eischalen wurden die Eihäute mit einer 37°C warmen 0,9%-igen NaCl-Lösung befeuchtet. Anschließend wurden unter der Sterilbank die äußeren Eihäute mittels Schere und Pinzette entfernt und die Chorion-Allantois-Membranen freigelegt. Etwa 10-30 % der präparierten Eier wurden für die Untersuchungen nicht verwendet, da sie unbefruchtet waren. Die halbfeste Keratinpartikel-haltige Formulierung konnte nun an den gut ausgebildeten und unbeschädigten Blutgefäßen der Chorion-Allantois-Membranen aufgetragen und getestet werden. Das Testpräparat wurde an insgesamt sechs Eiern getestet, maximal 30 Minuten nach der Öffnung der Eier. […]

`CCCCCCCCCCCCOS(=O)(=O)O` [1 % Natriumlaurylsulfat-Lösung, Natriumlaurylsulfat] was tested, and the “Irritatives Potential” value was “stark” and the “Irritatives Potential” value (listed as 1%ige Natriumlaurylsulfat-Lösung) was “starkes (IS > 9 = starkes irritatives Potential)”.
